Values quoted from earlier work as cited in patent US10023652B2, “Method of targeting glycoproteins to treat cancer” (Board of Regents of the University of Nebraska, priority 2013, dated 2018).

System: breast cancer patients
Settings: along with cytotoxic agents; cited from earlier work

## Herceptin: ErbB2-specific mAb
  overall patient survival: significant improvement in overall patient survival
